Data published in PMC9291665, “Discovery and SAR analysis of 5-chloro-4-((substituted phenyl)amino)pyrimidine bearing histone deacetylase inhibitors” (Journal of Enzyme Inhibition and Medicinal Chemistry, 2022).

Tested on: K562 cells
Assay: Cell cycle analysis by flow cytometry (PI)
Details: 24 h, first peak in Figure 5

Compound: O=C(CCCCCCC(=O)Nc1ccccc1)NO [SAHA, Vorinostat, reference compound]
- G0/G1 phase ratio of K562 cells (1 µM): 44.45%
- G0/G1 phase ratio of K562 cells (2 µM): 60.63%
